pIC50: −log10 of the molar value.
Legend:
Truncated human Axl = Truncated human Axl (Homo sapiens, UniProt P30530); test: Kinase inhibition assay (inhibition of enzymatic Axl kinase activity); assay type: biochemical; conditions: read-out: Axl; Table 2, range of IC50 value; tested form: HCl
MDA-MB-231 cells = test: Cell viability assay (ATPLite), MDA-MB-231; conditions: read-out: MDA-MB-231 (GI50); 72 hour incubation; tested form: HCl
JAK2 = JAK2 (Homo sapiens (Human), UniProt O60674); test: Biochemical inhibition of JAK2; conditions: read-out: JAK2; Table 2, range of IC50 value; tested form: HCl
Hs578T cells = test: Cell viability assay (ATPLite), Hs578T; conditions: read-out: Hs578T (GI50); 72 hour incubation; tested form: HCl
[1] = Drug exposure in rat after oral administration; assay type: in vivo; conditions: oral administration of 10 mg/kg, tested form: HCl

The chains behind the UniProt entries cited, without tags or fusion partners. Residues count along the entry.
UniProt P30530, 26-894 limits assumed: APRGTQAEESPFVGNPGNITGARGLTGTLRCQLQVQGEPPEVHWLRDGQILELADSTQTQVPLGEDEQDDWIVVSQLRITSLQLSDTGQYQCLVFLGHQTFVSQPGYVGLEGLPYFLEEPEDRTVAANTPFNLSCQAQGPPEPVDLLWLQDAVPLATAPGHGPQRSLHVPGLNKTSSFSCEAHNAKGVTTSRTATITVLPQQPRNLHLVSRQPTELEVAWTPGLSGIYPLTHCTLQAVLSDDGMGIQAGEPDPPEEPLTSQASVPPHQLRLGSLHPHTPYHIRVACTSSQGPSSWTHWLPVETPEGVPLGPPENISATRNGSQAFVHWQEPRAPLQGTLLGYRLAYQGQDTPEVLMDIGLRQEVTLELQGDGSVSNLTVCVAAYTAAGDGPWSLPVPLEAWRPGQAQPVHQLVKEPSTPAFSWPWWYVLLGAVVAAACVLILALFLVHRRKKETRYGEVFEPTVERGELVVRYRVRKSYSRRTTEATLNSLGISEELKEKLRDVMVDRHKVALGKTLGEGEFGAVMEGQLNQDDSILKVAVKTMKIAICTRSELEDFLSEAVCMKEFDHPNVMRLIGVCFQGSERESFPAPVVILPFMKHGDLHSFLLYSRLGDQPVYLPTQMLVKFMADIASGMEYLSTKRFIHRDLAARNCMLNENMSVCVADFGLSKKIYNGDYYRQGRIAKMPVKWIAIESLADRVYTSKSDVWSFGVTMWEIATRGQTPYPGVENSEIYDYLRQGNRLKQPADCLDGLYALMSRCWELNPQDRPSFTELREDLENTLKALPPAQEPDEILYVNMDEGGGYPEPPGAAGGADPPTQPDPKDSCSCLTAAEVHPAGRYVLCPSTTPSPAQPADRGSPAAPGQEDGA
UniProt O60674, whole entry: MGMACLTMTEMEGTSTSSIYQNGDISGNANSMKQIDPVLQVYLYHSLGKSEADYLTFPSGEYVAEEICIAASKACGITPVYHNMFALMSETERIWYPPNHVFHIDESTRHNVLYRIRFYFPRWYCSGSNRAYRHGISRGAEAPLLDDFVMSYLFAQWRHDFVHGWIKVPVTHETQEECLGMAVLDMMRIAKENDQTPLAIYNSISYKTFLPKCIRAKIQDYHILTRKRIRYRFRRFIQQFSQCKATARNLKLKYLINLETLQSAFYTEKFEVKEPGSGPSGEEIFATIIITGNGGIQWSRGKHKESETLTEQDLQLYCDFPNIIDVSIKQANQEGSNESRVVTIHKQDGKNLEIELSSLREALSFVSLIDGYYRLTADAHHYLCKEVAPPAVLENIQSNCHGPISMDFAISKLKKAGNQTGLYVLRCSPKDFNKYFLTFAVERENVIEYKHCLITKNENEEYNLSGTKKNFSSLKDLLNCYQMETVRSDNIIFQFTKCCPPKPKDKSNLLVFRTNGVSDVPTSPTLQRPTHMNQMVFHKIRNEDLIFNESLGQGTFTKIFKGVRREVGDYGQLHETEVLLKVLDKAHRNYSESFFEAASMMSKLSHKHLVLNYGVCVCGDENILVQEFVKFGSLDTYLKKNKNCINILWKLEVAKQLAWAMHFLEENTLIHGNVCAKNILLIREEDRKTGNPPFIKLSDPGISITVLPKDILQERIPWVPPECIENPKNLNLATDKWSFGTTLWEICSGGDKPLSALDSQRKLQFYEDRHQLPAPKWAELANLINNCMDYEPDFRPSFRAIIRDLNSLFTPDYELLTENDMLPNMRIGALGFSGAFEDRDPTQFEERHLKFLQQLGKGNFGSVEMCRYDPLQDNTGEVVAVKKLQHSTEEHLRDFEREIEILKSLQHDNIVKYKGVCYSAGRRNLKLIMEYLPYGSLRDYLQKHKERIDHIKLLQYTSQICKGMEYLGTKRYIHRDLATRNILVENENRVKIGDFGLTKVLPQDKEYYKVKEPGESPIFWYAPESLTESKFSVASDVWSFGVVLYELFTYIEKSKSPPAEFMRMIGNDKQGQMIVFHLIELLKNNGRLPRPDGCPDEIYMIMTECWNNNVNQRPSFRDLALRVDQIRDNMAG

Row | pIC50 (Truncated human Axl) | GI50 (MDA-MB-231 cells) | pIC50 (JAK2) | drug exposure [1] | SMILES | GI50 (Hs578T cells)
1 | 7.00 to 7.96 | 1100 to 3000 nM | 6.00 to 7.00 | – | NC1CCN(c2nc(Nc3ccc(Oc4ccccc4)cc3)c3c(=O)[nH]cc(Br)c3n2)CC1 | 1100 to 3000 nM
2 | 7.00 to 7.96 | – | 8.00 to 9.00 | no drug exposure | O=c1[nH]ccc2nc(N[C@H]3CCNC3)nc(Nc3ccc(N4CCOCC4)cc3)c12 | –
3 | 7.00 to 7.96 | – | 7.00 to 7.96 | no drug exposure | O=c1[nH]ccc2nc(N[C@H]3CCNC3)nc(Nc3ccc(C(F)(F)F)cc3)c12 | –
